This is an account of results in patent US6972340B2, “Selective protein tyrosine phosphatatase inhibitors” (Abbott Laboratories, priority 2000, dated 2005).

Holding throughout (format): biochemical
Settings in all cases: from Kic of Table 1

Experiment [1] has as its target T1, Cdc25c (Homo sapiens, UniProt P30307).
T1 construct: GST (glutathione-S-transferase); made in house; host or cells: E. coli
T1 sequence (P30307 1-473): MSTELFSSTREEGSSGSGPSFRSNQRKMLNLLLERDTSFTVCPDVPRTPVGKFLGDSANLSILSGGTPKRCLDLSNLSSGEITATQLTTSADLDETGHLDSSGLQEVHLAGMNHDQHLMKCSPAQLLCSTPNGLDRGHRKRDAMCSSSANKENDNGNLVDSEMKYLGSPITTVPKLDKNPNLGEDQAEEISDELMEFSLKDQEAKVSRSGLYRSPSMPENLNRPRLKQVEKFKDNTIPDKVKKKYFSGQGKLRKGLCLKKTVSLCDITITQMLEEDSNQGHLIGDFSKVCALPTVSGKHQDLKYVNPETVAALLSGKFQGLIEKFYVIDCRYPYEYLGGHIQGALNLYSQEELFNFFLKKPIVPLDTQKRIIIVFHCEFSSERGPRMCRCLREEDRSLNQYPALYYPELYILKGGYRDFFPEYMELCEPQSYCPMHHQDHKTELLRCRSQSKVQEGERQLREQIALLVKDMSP
In words: Inhibition constant determination, selectivity panel: Cdc25c (pNPP hydrolysis).

The target of experiment [2] is T2, CD45 (Homo sapiens, UniProt P08575).
T2 construct: purchased Biomol Research Laboratories, Inc. SE-135
T2 sequence (P08575 609-1306 limits assumed): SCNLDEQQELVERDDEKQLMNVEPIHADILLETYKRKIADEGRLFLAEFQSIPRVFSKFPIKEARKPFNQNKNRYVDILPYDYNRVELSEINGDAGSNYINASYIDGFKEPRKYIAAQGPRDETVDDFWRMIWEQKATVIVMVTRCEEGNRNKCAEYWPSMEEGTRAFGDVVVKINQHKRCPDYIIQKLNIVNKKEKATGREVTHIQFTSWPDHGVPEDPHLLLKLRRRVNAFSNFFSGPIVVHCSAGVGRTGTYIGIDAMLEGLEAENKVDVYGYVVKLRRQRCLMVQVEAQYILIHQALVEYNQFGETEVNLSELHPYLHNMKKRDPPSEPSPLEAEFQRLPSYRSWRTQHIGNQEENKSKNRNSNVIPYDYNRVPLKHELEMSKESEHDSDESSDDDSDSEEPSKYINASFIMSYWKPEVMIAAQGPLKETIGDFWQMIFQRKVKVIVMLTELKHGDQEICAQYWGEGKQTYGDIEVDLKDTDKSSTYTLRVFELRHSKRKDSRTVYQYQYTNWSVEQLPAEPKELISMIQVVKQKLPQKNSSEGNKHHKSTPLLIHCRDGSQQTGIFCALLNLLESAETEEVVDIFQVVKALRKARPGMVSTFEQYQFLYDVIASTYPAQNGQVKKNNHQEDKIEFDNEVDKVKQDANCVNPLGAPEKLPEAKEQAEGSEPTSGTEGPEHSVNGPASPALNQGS
Kind of experiment: Inhibition constant determination, selectivity panel: CD45 (pNPP hydrolysis).

The target of experiment [3] is T3, LAR (Homo sapiens, UniProt P10586).
T3 construct: purchased New England Biolabs P0750L
T3 sequence (P10586 1301-1639 limits assumed): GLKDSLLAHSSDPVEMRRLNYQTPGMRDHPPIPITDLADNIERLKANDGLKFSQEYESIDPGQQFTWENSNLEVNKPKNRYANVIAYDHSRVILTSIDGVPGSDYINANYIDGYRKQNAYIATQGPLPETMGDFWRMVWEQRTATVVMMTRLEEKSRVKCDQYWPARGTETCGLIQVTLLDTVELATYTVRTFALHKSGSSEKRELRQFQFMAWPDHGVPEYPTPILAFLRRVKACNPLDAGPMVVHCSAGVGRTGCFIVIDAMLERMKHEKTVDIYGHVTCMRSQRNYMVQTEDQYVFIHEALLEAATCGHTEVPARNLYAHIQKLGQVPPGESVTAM
Kind of experiment: Inhibition constant determination, selectivity panel: LAR (pNPP hydrolysis).

Experiment [4] has as its target T4, Bovine PP2B (Bos taurus, UniProt P48452).
T4 construct: purchased Sigma C1907
In words: Inhibition constant determination, selectivity panel: PP2B (pNPP hydrolysis).

For experiment [5], the target named is T5, SHP-2 (full length) (Homo sapiens, UniProt Q06124).
T5 construct: SHP-2 (full length) was expressed in from E. coli; made in house; host or cells: E. coli
In words: Inhibition constant determination, selectivity panel: SHP-2 (pNPP hydrolysis).

On to `CCc1cc(C[C@H](NC(C)=O)C(=O)NCCCCOc2cccc(O)c2C(=O)OC)ccc1N(C(=O)C(=O)O)c1ccccc1C(=O)O` [Example 13, methyl 2-{4-[(N-acetyl-4-[(carboxycarbonyl)(2-carboxyphenyl)amino]-3-ethylphenylalanyl)amino]butoxy}-6-hydroxybenzoate], for which the “selective for PTP1B over Cdc25C” value in experiment [1] is reported as 2,000 fold. Besides, in experiment [2], the “selective for PTP1B over CD45” value is given as 2,000 fold. Besides, the “selective for PTP1B over LAR” value in experiment [3] worked out at 50 fold. Further, the “selective for PTP1B over PP2B” value in experiment [4] was 2,000 fold. In addition, the “selective for PTP1B over SHP-2” value in experiment [5] stood at 50 fold.
